# Measurements as given in BindingDB's records for doi:10.7270/Q27P8WSS (Srmlsc, 2007).
# Target: T1, Mevalonate kinase (Streptococcus pneumoniae serotype 2 (strain D39 / NCTC 7466), UniProt A0A0H2ZQX9)
# T1 sequence (A0A0H2ZQX9 whole entry): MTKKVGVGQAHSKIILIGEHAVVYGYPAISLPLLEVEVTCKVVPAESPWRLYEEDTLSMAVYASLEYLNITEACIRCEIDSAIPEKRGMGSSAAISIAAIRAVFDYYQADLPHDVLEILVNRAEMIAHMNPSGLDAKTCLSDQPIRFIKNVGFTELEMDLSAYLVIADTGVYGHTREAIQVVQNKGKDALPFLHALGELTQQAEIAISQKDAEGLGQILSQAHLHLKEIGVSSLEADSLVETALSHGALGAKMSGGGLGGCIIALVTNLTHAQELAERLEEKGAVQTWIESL
compound,measurement,value
O=c1c2ccccc2[se]n1-c1ccccc1 [2-Phenyl-benzo[d]isoselenazol-3-one],IC50,101 µM
